The chains behind the UniProt entries cited, without tags or fusion partners. Residues count along the entry.
UniProt Q9NRD8, 26-1548: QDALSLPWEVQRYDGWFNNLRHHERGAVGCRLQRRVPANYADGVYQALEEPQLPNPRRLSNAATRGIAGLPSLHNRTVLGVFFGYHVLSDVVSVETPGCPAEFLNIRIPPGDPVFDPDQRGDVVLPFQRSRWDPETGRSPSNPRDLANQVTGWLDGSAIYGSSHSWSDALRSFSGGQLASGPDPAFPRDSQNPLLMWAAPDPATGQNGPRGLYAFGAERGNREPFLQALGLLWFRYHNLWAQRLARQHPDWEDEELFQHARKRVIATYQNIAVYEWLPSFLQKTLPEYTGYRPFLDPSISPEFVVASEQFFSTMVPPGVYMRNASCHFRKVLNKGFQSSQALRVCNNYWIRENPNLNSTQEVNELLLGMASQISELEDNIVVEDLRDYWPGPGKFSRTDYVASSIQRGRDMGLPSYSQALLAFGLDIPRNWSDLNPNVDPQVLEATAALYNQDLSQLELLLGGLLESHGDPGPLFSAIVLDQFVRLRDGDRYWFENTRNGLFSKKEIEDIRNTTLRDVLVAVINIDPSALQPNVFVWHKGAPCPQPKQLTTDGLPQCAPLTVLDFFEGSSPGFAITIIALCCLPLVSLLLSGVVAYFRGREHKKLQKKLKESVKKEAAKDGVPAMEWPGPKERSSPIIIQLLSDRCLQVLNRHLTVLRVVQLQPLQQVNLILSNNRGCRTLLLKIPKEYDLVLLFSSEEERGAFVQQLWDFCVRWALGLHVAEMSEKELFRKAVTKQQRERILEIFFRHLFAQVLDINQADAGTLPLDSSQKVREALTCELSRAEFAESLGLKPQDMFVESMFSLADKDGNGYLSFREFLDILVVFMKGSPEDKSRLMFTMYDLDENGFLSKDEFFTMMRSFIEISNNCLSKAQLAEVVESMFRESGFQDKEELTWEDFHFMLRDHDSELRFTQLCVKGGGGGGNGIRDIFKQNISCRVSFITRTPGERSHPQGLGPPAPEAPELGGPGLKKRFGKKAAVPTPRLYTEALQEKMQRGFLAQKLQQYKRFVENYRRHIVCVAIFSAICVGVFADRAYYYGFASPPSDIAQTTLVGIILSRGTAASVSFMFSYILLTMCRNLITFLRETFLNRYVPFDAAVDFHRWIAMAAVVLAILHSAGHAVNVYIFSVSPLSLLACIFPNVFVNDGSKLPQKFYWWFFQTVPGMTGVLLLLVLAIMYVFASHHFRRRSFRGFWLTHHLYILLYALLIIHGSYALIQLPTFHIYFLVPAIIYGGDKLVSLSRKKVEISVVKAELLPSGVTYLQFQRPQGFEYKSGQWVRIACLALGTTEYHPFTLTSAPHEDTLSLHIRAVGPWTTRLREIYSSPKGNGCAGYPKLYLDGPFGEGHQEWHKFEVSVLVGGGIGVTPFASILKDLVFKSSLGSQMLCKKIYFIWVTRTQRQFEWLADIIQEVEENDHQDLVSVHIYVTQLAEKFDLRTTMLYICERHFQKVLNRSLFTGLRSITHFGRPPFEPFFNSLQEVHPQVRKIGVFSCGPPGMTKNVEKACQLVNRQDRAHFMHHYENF

In patent publication US10131659B2, “Iodonium analogs as inhibitors of NADPH oxidases and other flavin dehydrogenases; formulations thereof; and uses thereof” (priority 2014, dated 2018):

How the values were obtained:
Assay type in all cases: cell-based
NOX1/A1/O1 = target: T1, NOX1/A1/O1 (Homo sapiens, UniProt Q9Y5S8); experiment: NOX1-dependent ROS production, luminescence assay for O2.- in HEK293 cells expressing the NOX1 complex; conditions: exposure for 30 min
T1 construct: expressed in transfected cells; host or cells: HEK293

NOX4 = target: T2, NOX4 (Homo sapiens, UniProt Q9NPH5); experiment: NOX4-dependent H2O2 production, Amplex Red assay in reconstituted HEK293 cells; conditions: exposure for 30 min
T2 construct: expressed in transfected cells; host or cells: HEK293
T2 sequence (Q9NPH5 1-578): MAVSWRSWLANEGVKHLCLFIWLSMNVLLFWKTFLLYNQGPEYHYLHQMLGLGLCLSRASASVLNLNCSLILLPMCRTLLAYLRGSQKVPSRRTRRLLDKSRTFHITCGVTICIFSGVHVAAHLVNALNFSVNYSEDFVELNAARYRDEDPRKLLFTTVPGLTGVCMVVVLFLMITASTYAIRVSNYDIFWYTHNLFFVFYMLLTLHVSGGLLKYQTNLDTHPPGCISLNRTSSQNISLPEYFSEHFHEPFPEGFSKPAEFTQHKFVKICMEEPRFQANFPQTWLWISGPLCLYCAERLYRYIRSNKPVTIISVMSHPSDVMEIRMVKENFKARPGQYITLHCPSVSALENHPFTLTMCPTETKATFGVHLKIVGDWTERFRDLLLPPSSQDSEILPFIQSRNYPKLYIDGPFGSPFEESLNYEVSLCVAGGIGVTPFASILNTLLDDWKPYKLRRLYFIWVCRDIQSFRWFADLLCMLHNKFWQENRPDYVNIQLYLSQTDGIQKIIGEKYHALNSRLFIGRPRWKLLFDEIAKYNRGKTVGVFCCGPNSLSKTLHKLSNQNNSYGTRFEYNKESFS
T2 sequence (P13498 2-195 partner limits assumed): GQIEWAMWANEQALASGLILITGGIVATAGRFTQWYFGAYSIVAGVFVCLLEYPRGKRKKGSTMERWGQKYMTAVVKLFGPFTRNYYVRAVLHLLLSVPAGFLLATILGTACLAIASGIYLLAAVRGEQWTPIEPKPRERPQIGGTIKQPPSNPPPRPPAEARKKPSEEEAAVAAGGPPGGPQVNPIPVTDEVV
Method: (§1) To evaluate compound specificity, a luminescence assay for O2.^− was used with HEK293 cells expressing all components of the NOX1 complex; fully differentiated HL-60 cells expressing active NOX2; and UACC257 melanoma cells that exclusively express active NOX5. H2O2 was measured by Amplex Red assay to determine NOX4 or Duox2 activity in fully reconstituted HEK293 cells. The method conducted was similar to the approach disclosed in Jaquet et al in Brit J. Pharmacology 164: 507-520, 2011 using somewhat different cell models for the NOX isoforms and we studied Duox2 in our own cell model.

NOX5 = target: T3, NOX5 (Homo sapiens, UniProt Q96PH1); experiment: NOX5-dependent ROS production, luminescence assay for O2.- in UACC257 melanoma cells; conditions: exposure for 30 min
T3 sequence (Q96PH1 1-765): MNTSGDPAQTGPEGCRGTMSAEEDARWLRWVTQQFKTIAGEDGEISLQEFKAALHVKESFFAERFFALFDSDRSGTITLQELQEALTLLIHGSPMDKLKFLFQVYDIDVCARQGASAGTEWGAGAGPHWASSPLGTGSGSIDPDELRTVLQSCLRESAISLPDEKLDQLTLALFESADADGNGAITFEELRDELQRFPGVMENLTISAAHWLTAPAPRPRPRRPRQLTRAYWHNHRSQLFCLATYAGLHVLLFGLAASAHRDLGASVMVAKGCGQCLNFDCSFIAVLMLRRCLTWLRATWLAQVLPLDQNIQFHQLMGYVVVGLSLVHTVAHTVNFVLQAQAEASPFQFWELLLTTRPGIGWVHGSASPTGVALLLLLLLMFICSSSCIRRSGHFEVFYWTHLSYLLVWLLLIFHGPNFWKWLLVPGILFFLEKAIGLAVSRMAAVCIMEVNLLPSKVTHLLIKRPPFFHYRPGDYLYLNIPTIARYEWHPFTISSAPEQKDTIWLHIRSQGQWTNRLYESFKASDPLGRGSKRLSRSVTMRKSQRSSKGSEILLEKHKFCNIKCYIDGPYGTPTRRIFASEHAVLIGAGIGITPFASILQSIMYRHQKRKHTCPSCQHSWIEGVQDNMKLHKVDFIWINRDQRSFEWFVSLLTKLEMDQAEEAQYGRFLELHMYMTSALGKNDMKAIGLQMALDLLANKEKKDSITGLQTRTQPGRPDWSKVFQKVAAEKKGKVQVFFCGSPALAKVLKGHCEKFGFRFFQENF

DUOX2/A2 = DUOX2/A2 (Homo sapiens, UniProt Q9NRD8); experiment: DUOX2-dependent H2O2 production, Amplex Red assay in reconstituted HEK293 cells; conditions: 3-5 independent experiments; read-out: IC50 ± SE, DUOX2/A2 HEK 293
Method: as §1

With `c1ccc2c(c1)[I+]c1ccccc1-2` [Compound 13, Diphenyleneiodonium chloride, reference compound] the IC50 (NOX1/A1/O1; 3-5 independent experiments, read-out: IC50 ± SE, NOX1/A1/O1 HEK 293) was 233 ± 122 nM, the “IC50 toward NOX1” value (NOX1/A1/O1) was “low nM” and the IC50 (NOX4; 3-5 independent experiments, read-out: IC50 ± SE, NOX4 HEK293) was 880 ± 214 nM. For the same molecule, the “IC50 toward NOX4” value (NOX4) was “low nM”, the IC50 (NOX5; 3-5 independent experiments, read-out: IC50 ± SE, NOX5 UACC-257) was 42 ± 27 nM and the “IC50 toward NOX5” value (NOX5) was “low nM”. The IC50 (DUOX2/A2) was 6.49 ± 1.63 µM.
